Data reported in article PMC6057921.

Key:
[1] = target: Actin filament branch junction (yeast Arp2/3 complex on rabbit muscle actin filaments) (rabbit | yeast (RedStar yeast cakes)) (UniProt P68135); experiment: single-molecule TIRF colocalisation; 10 nM Abp1-SNAP-649, 8 nM Arp2/3 complex and 1 µM actin (10% OG-labeled, 0.5% biotin-labeled) polymerised together; 1 s intervals for 10 min; 1.14 µm^2 detection box
[2] = target: Arp2/3 complex (untagged, yeast) (yeast (RedStar yeast cakes)) (UniProt P32381); experiment: negative-stain single-particle electron microscopy; Abp1-SNAP and Arp2/3 complex at 1:1 molar ratio (100 nM each), 30 min at room temperature, uranyl formate stain; random conical tilt 3D reconstructions at 21 Å

Q: What does the source list for “Abp1-SNAP (S. cerevisiae Abp1 with C-terminal SNAP-tag, dye-labelled) (from UniProt P15891 1-592) (natural protein)”?
A: calculated occupancy of available branch sites [1]: 60%; lifetime, longer-lived component of branch colocalization events [1]: 28 s; percent of particles in the Class 2 Abp1-bound reconstruction [2]: 14%
